Reference: patent publication US20260345776A1, “SYNTHETIC INTERMEDIATES FOR UNIVERSAL CHIMERIC ANTIGEN RECEPTOR IMMUNE CELL THERAPIES” (priority 2022, published 2026)

Tests used:
[1] = test system: EGFRt; assay: Erbitux staining of EGFRt on CD4^+ DB5 CAR T-cells; conditions: S1D11
[2] = test system: EGFRt; assay: Erbitux staining of EGFRt on CD8^+ DB5 CAR T-cells; conditions: S1D11

## Erbitux: biotinylated Erbitux antibody staining EGFRt
[1]
  Erbitux staining for EGFRt: > 95%
[2]
  Erbitux staining for EGFRt: > 94%
